# Test results reported in PubChem BioAssay AID651702 (NMMLSC, 2012).
# The list shows a part of the results, in another mix than the full data. Activity calls are given as the source filed them.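 The calls were made as follows: active = inhibition above about 55% (limit read from the data); inconclusive = no clear call, values can overlap the other calls; inactive = the rest.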
# Assay: LAMP-1 surface exposure blockers, TALL-104 cells – cell-based, flow cytometry, MLPCN library, primary screen (AID 651702)
# Settings: TALL-104 LAMP-1 surface exposure, at 10 µM, stronger effect = higher value, cells stimulated with thapsigargin and PMA
row,Compound,inhibition
1,COc1cc(I)ccc1[As](=O)(O)O,inactive: -7.3%
